Data as given in IntAct's records for PubMed 35512704.

B1: RAC-alpha serine/threonine-protein kinase (Homo sapiens), P31749 (parent)
chain: MSDVAIVKEGWLHKRGEYIKTWRPRYFLLKNDGTFIGYKERPQDVDQREAPLNNFSVAQCQLMKTERPRPNTFIIRCLQWTTVIERTFHVETPEEREEWTTAIQTVADGLKKQEEEEMDFRSGSPSDNSGAEEMEVSLAKPKHRVTMNEFEYLKLLGKGTFGKVILVKEKATGRYYAMKILKKEVIVAKDEVAHTLTENRVLQNSRHPFLTALKYSFQTHDRLCFVMEYANGGELFFHLSRERVFSEDRARFYGAEIVSALDYLHSEKNVVYRDLKLENLMLDKDGHIKITDFGLCKEGIKDGATMKTFCGTPEYLAPEVLEDNDYGRAVDWWGLGVVMYEMMCGRLPFYNQDHEKLFELILMEEIRFPRTLGPEAKSLLSGLLKKDPKQRLGGGSEDAKEIMQHRFFAGIVWQHVYEKKLSPPFKPQVTSETDTRYFDEEFTAQMITITPPDQDDSMECVDSERRPHFPQFSYSASGTA

Variants of: B1
Details: with ufo_human AXL

Variant	effect of a mutation on the interaction
MSDVAIVKEGWLHKRGKYIKTWRPRYFLLKNDGTFIGYKERPQDVDQREAPLNNFSVAQCQLMKTERPRPNTFIIRCLQWTTVIERTFHVETPEEREEWTTAIQTVADGLKKQEEEEMDFRSGSPSDNSGAEEMEVSLAKPKHRVTMNEFEYLKLLGKGTFGKVILVKEKATGRYYAMKILKKEVIVAKDEVAHTLTENRVLQNSRHPFLTALKYSFQTHDRLCFVMEYANGGELFFHLSRERVFSEDRARFYGAEIVSALDYLHSEKNVVYRDLKLENLMLDKDGHIKITDFGLCKEGIKDGATMKTFCGTPEYLAPEVLEDNDYGRAVDWWGLGVVMYEMMCGRLPFYNQDHEKLFELILMEEIRFPRTLGPEAKSLLSGLLKKDPKQRLGGGSEDAKEIMQHRFFAGIVWQHVYEKKLSPPFKPQVTSETDTRYFDEEFTAQMITITPPDQDDSMECVDSERRPHFPQFSYSASGTA [E17K]	with no effect

Variants of: B1
Details: with za2g_human AZGP1, P25311

Variant	effect of a mutation on the interaction
MSDVAIVKEGWLHKRGKYIKTWRPRYFLLKNDGTFIGYKERPQDVDQREAPLNNFSVAQCQLMKTERPRPNTFIIRCLQWTTVIERTFHVETPEEREEWTTAIQTVADGLKKQEEEEMDFRSGSPSDNSGAEEMEVSLAKPKHRVTMNEFEYLKLLGKGTFGKVILVKEKATGRYYAMKILKKEVIVAKDEVAHTLTENRVLQNSRHPFLTALKYSFQTHDRLCFVMEYANGGELFFHLSRERVFSEDRARFYGAEIVSALDYLHSEKNVVYRDLKLENLMLDKDGHIKITDFGLCKEGIKDGATMKTFCGTPEYLAPEVLEDNDYGRAVDWWGLGVVMYEMMCGRLPFYNQDHEKLFELILMEEIRFPRTLGPEAKSLLSGLLKKDPKQRLGGGSEDAKEIMQHRFFAGIVWQHVYEKKLSPPFKPQVTSETDTRYFDEEFTAQMITITPPDQDDSMECVDSERRPHFPQFSYSASGTA [E17K]	with no effect

Variants of: B1
Details: with b2mg_human B2M

Variant	effect of a mutation on the interaction
MSDVAIVKEGWLHKRGKYIKTWRPRYFLLKNDGTFIGYKERPQDVDQREAPLNNFSVAQCQLMKTERPRPNTFIIRCLQWTTVIERTFHVETPEEREEWTTAIQTVADGLKKQEEEEMDFRSGSPSDNSGAEEMEVSLAKPKHRVTMNEFEYLKLLGKGTFGKVILVKEKATGRYYAMKILKKEVIVAKDEVAHTLTENRVLQNSRHPFLTALKYSFQTHDRLCFVMEYANGGELFFHLSRERVFSEDRARFYGAEIVSALDYLHSEKNVVYRDLKLENLMLDKDGHIKITDFGLCKEGIKDGATMKTFCGTPEYLAPEVLEDNDYGRAVDWWGLGVVMYEMMCGRLPFYNQDHEKLFELILMEEIRFPRTLGPEAKSLLSGLLKKDPKQRLGGGSEDAKEIMQHRFFAGIVWQHVYEKKLSPPFKPQVTSETDTRYFDEEFTAQMITITPPDQDDSMECVDSERRPHFPQFSYSASGTA [E17K]	with no effect

Variants of: B1
Details: with bap1_human BAP1, Q92560

Variant	effect of a mutation on the interaction
MSDVAIVKEGWLHKRGKYIKTWRPRYFLLKNDGTFIGYKERPQDVDQREAPLNNFSVAQCQLMKTERPRPNTFIIRCLQWTTVIERTFHVETPEEREEWTTAIQTVADGLKKQEEEEMDFRSGSPSDNSGAEEMEVSLAKPKHRVTMNEFEYLKLLGKGTFGKVILVKEKATGRYYAMKILKKEVIVAKDEVAHTLTENRVLQNSRHPFLTALKYSFQTHDRLCFVMEYANGGELFFHLSRERVFSEDRARFYGAEIVSALDYLHSEKNVVYRDLKLENLMLDKDGHIKITDFGLCKEGIKDGATMKTFCGTPEYLAPEVLEDNDYGRAVDWWGLGVVMYEMMCGRLPFYNQDHEKLFELILMEEIRFPRTLGPEAKSLLSGLLKKDPKQRLGGGSEDAKEIMQHRFFAGIVWQHVYEKKLSPPFKPQVTSETDTRYFDEEFTAQMITITPPDQDDSMECVDSERRPHFPQFSYSASGTA [E17K]	with no effect

Variants of: B1
Details: with b2cl1_human BCL2L1, Q07817

Variant	effect of a mutation on the interaction
MSDVAIVKEGWLHKRGKYIKTWRPRYFLLKNDGTFIGYKERPQDVDQREAPLNNFSVAQCQLMKTERPRPNTFIIRCLQWTTVIERTFHVETPEEREEWTTAIQTVADGLKKQEEEEMDFRSGSPSDNSGAEEMEVSLAKPKHRVTMNEFEYLKLLGKGTFGKVILVKEKATGRYYAMKILKKEVIVAKDEVAHTLTENRVLQNSRHPFLTALKYSFQTHDRLCFVMEYANGGELFFHLSRERVFSEDRARFYGAEIVSALDYLHSEKNVVYRDLKLENLMLDKDGHIKITDFGLCKEGIKDGATMKTFCGTPEYLAPEVLEDNDYGRAVDWWGLGVVMYEMMCGRLPFYNQDHEKLFELILMEEIRFPRTLGPEAKSLLSGLLKKDPKQRLGGGSEDAKEIMQHRFFAGIVWQHVYEKKLSPPFKPQVTSETDTRYFDEEFTAQMITITPPDQDDSMECVDSERRPHFPQFSYSASGTA [E17K]	with no effect

Variants of: B1
Details: with birc2_human BIRC2

Variant	effect of a mutation on the interaction
MSDVAIVKEGWLHKRGKYIKTWRPRYFLLKNDGTFIGYKERPQDVDQREAPLNNFSVAQCQLMKTERPRPNTFIIRCLQWTTVIERTFHVETPEEREEWTTAIQTVADGLKKQEEEEMDFRSGSPSDNSGAEEMEVSLAKPKHRVTMNEFEYLKLLGKGTFGKVILVKEKATGRYYAMKILKKEVIVAKDEVAHTLTENRVLQNSRHPFLTALKYSFQTHDRLCFVMEYANGGELFFHLSRERVFSEDRARFYGAEIVSALDYLHSEKNVVYRDLKLENLMLDKDGHIKITDFGLCKEGIKDGATMKTFCGTPEYLAPEVLEDNDYGRAVDWWGLGVVMYEMMCGRLPFYNQDHEKLFELILMEEIRFPRTLGPEAKSLLSGLLKKDPKQRLGGGSEDAKEIMQHRFFAGIVWQHVYEKKLSPPFKPQVTSETDTRYFDEEFTAQMITITPPDQDDSMECVDSERRPHFPQFSYSASGTA [E17K]	with no effect

Variants of: B1
Details: with braf_human BRAF

Variant	effect of a mutation on the interaction
MSDVAIVKEGWLHKRGKYIKTWRPRYFLLKNDGTFIGYKERPQDVDQREAPLNNFSVAQCQLMKTERPRPNTFIIRCLQWTTVIERTFHVETPEEREEWTTAIQTVADGLKKQEEEEMDFRSGSPSDNSGAEEMEVSLAKPKHRVTMNEFEYLKLLGKGTFGKVILVKEKATGRYYAMKILKKEVIVAKDEVAHTLTENRVLQNSRHPFLTALKYSFQTHDRLCFVMEYANGGELFFHLSRERVFSEDRARFYGAEIVSALDYLHSEKNVVYRDLKLENLMLDKDGHIKITDFGLCKEGIKDGATMKTFCGTPEYLAPEVLEDNDYGRAVDWWGLGVVMYEMMCGRLPFYNQDHEKLFELILMEEIRFPRTLGPEAKSLLSGLLKKDPKQRLGGGSEDAKEIMQHRFFAGIVWQHVYEKKLSPPFKPQVTSETDTRYFDEEFTAQMITITPPDQDDSMECVDSERRPHFPQFSYSASGTA [E17K]	with no effect

Variants of: B1
Details: with baba2_human BABAM2

Variant	effect of a mutation on the interaction
MSDVAIVKEGWLHKRGKYIKTWRPRYFLLKNDGTFIGYKERPQDVDQREAPLNNFSVAQCQLMKTERPRPNTFIIRCLQWTTVIERTFHVETPEEREEWTTAIQTVADGLKKQEEEEMDFRSGSPSDNSGAEEMEVSLAKPKHRVTMNEFEYLKLLGKGTFGKVILVKEKATGRYYAMKILKKEVIVAKDEVAHTLTENRVLQNSRHPFLTALKYSFQTHDRLCFVMEYANGGELFFHLSRERVFSEDRARFYGAEIVSALDYLHSEKNVVYRDLKLENLMLDKDGHIKITDFGLCKEGIKDGATMKTFCGTPEYLAPEVLEDNDYGRAVDWWGLGVVMYEMMCGRLPFYNQDHEKLFELILMEEIRFPRTLGPEAKSLLSGLLKKDPKQRLGGGSEDAKEIMQHRFFAGIVWQHVYEKKLSPPFKPQVTSETDTRYFDEEFTAQMITITPPDQDDSMECVDSERRPHFPQFSYSASGTA [E17K]	with no effect
